# Source: PubChem BioAssay AID485358 (National Center for Advancing Translational Sciences (NCATS), 2010)
# Protein sequences, listed by entry. Tags and fused reporters are not part of them.
# UniProt P14416, whole entry: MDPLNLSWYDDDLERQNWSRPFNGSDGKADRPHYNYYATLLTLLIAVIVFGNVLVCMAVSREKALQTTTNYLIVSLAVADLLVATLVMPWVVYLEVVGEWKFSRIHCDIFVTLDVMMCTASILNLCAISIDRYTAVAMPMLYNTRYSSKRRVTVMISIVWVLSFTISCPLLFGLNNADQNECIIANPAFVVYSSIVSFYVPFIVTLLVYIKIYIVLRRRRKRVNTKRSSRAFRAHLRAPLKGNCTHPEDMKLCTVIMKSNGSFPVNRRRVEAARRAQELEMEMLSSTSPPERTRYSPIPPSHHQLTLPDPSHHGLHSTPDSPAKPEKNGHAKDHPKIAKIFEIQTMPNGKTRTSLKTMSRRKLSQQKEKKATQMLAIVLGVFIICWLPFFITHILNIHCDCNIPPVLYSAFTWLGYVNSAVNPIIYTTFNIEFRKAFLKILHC
# The list shows a part of the results, in another mix than the full data. Some structures show a salt or complex split into parts, the way the source records it. Calls of active or inactive are those of the source.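 How the source made its calls: active means activation over 3 SD above normal in the single-dose calcium agonist read (cut at about 30% in these data); inactive means the rest.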
# Target: D(2) dopamine receptor (Homo sapiens) (UniProt P14416)
# Experiment: HTS Assay for Allosteric Agonists of the Human D2 Dopamine Receptor: Primary Screen for Agonists; further: 0% is about no effect
# Settings: HEK293 T-REx D2 cells, calcium flux agonist mode; at 2 µM; stronger effect = higher value
# From the text: NIH Chemical Genomics Center [NCGC] NIH Molecular Libraries Probe Centers Network [MLPCN] MLPCN Grant: NS064831-01 Assay Submitter (PI): David Sibley Dopamine receptors (DARs) are involved in the etiology and/or therapy of a number of neuropsychiatric and endocrine disorders. For instance, all receptor-based antiparkinsonian drugs work via stimulating the D2 DAR subtype whereas all FDA-approved antipsychotic agents are antagonists of this receptor. […] There are three different types of allosteric modulators that we are seeking, two of which will stimulate or augment receptor signaling, allosteric agonists and potentiators, while the third, allosteric antagonists, will attenuate receptor signaling. The present primary screening assay measures compound agonism by tracking calcium flux in a […], inducible Hek293 Trex D2 cell line.
# Freshly passaged cells are plated in 1536 well black, clear bottom plates at a density of 4000 cells/well in 3 ul of complete media containing 1x tetracycline inducer. After an overnight incubation at […] in 5% CO2, cells are loaded with 2 ul of the no wash Calcium Assay Kit (ABD Bioquest) and incubated at room temperature for 30 to 90 minutes. Agonist read: A 10 cycle (1 second/cycle) baseline measurement is taken and then the FDSS online 1536 pintool delivers 23 nl of compound library (as well as dopamine controls) to the plate. The plate is measured for kinetically at 1 cycle/sec for 180 seconds and is considered to be the agonist portion of the assay (eg, compounds which activate a positive calcium response during this portion are flagged as potential agonists). Following the 180 second read, 1 ul of either an EC20 (positive modulation assay) or EC80 (negative modulation assay) is delivered by an onboard pipette head. Measurements are taken kinetically for an additional 180 seconds.
row,SMILES,activation
1,CN1CCC(Nc2ccc(Cl)cc2)CC1,inactive: 0.616%
2,CCCOc1ccc(C)cc1CN(CCCl)CCCl,inactive: 0.0141%
3,COc1cc(OC)cc(C(=O)NCC2(N3CCOCC3)CCCCC2)c1,inactive: -0.227%
4,COc1cc(C(=O)NCC2(N3CCOCC3)CCCCC2)cc(OC)c1OC,inactive: 1%
5,COc1cccc(C(=O)N(c2cc(C)cc(C)c2)C2CCN(C(=O)OC(C)(C)C)CC2)c1,inactive: -3.78%
6,CCC(CO)(C(=O)OC1CN2CCC1CC2)c1ccccc1 (stereo not given),inactive: -0.018%
7,O=C(O)C1(Nc2ccccc2)CCN(Cc2ccccc2)CC1,inactive: 1.23%
8,CC(C)(C)OC(=O)N1CCC(Nc2ccccc2)CC1,inactive: -0.629%
9,CCCOc1ccc(C(=O)NCC2(N(C)C)CCCCC2)cc1,inactive: -0.571%
10,CN1CCC(Nc2ccc(F)c(Cl)c2)CC1,inactive: -0.34%
11,CCOc1ncccc1C(=O)NCC1(N2CCOCC2)CCCCC1,inactive: -0.407%
12,Cc1ccccc1C(=O)NCC1(N(C)C)CCCCC1,inactive: 1.16%
13,CC(C)(C)c1ccc(C(=O)NCC2(N3CCOCC3)CCCCC2)cc1,inactive: -1.35%
14,O=C(NCC1(N2CCCCC2)CCCCC1)c1ccco1,inactive: 0.284%
15,CCN1CCC(Nc2cccc(F)c2)CC1,inactive: 0.482%
16,Fc1ccccc1NC1CCN(Cc2ccccc2)CC1,inactive: -0.56%
17,Cc1ccc(C(=O)NCC2(N3CCCCC3)CCCCC2)o1,inactive: 1.89%
18,CN(C)C1(CNC(=O)c2ccc(C(C)(C)C)cc2)CCCCC1,inactive: 0.54%
19,COc1cc(OC)cc(C(=O)NCC2(N3CCCCC3)CCCCC2)c1,inactive: -0.841%
20,CN(C)C1(CNC(=O)c2cccc(C#N)c2)CCCCC1,inactive: -2.02%
21,O=C(NCC1(N2CCOCC2)CCCCC1)c1ccccc1,inactive: 2.05%
22,c1ccc(CN2CCC(Nc3ccccc3)CC2)cc1,inactive: 0.497%
23,CCOC(=O)C(CC)C1=NC(C)(C)Cc2ccccc21.O=[N+]([O-])c1cc([N+](=O)[O-])c(O)c([N+](=O)[O-])c1 (stereo not given),inactive: 0.0249%
24,N#Cc1ccc(C(=O)NCC2(N3CCCCC3)CCCCC2)cc1,inactive: 0.267%
25,O=C(NCC1(N2CCOCC2)CCCCC1)c1ccccc1[N+](=O)[O-],inactive: 0.865%
26,O=C(NCC1(N2CCOCC2)CCCCC1)c1ccc([N+](=O)[O-])cc1,inactive: 0.46%
27,O=C(O)c1cccc(Nc2c([N+](=O)[O-])cc([N+](=O)[O-])cc2[N+](=O)[O-])c1,inactive: -0.569%

row,SMILES,activation
1,O=C(OC1CN2CCC1CC2)C1c2ccccc2C=Cc2ccccc21 (stereo not given),inactive: 2.14%
2,CCOC(=O)N1CCC(Nc2ccc(C)cc2)CC1,inactive: 1.18%
3,N/C(=N\O)c1c(N)no[n+]1[O-],inactive: -0.683%
4,COc1ccc(C(=O)NCC2(N3CCOCC3)CCCCC2)cc1OC,inactive: 0.256%
5,O=C(NCC1(N2CCOCC2)CCCCC1)c1cc(Br)ccc1Cl,inactive: -0.158%
6,CCCOc1ccc(C(=O)NCC2(N(C)C)CCCCC2)cc1OC,inactive: -3.36%
7,O=C(NCC1(N2CCOCC2)CCCCC1)c1ccccc1Br,inactive: -0.216%
8,CCCCOc1ccccc1C(=O)NCC1(N2CCOCC2)CCCCC1,inactive: -1.05%
9,O=C(OC1CN2CCC1CC2)c1ccc([N+](=O)[O-])cc1 (stereo not given),inactive: -2.52%
10,COc1ccc2c(c1O)-c1c(O)c(OC)cc3c1[C@H](C2)[N+](C)(C)CC3.O=[N+]([O-])c1cc([N+](=O)[O-])c([O-])c([N+](=O)[O-])c1[O-],inactive: 0.418%
11,O=C(NCC1(N2CCCCC2)CCCCC1)c1cncc(Br)c1,inactive: 0.551%
12,COc1cc(OC)c(C(=O)NCC2(N(C)C)CCCCC2)cc1OC,inactive: 1.43%
13,CC(C)c1ccc(NC2CCN(C(=O)OC(C)(C)C)CC2)cc1,inactive: -2.87%
14,O=[N+]([O-])c1cc([N+](=O)[O-])c(OC2CCCCC2O)c([N+](=O)[O-])c1 (stereo not given),inactive: 0.0685%
15,CN(C)c1cccc(C(=O)NCC2(N3CCCCC3)CCCCC2)c1,inactive: -0.381%
16,COc1ccc(CN(CCCl)CCCl)cc1Cl,inactive: -0.213%
17,COc1cc(C(=O)NCC2(N3CCCCC3)CCCCC2)ccc1OC(F)F,inactive: 0.598%
18,O=C(NCC1(N2CCOCC2)CCCCC1)c1cc(=O)[nH]c2ccccc12,inactive: 0.456%
19,CN1CCN(CCOC(=O)C(O)(c2ccccc2)c2ccccc2)CC1,inactive: 0.421%
20,CC(C)c1ccc(C(=O)NCC2(N3CCOCC3)CCCCC2)cc1,inactive: -3.35%
21,COc1ccc(NC2CCN(C(=O)OC(C)(C)C)CC2)cc1,inactive: 1.42%
22,O=[N+]([O-])c1cc([N+](=O)[O-])c(NCC2CCS(=O)(=O)C2)c([N+](=O)[O-])c1 (stereo not given),inactive: -2.17%
23,CCCOc1cccc(C(=O)NCC2(N3CCOCC3)CCCCC2)c1,inactive: -2%
24,O=C(NCC1(N2CCCCC2)CCCCC1)c1cccc(C(F)(F)F)c1,inactive: -0.69%
25,N#CC1(Nc2ccccc2)CCN(CCc2ccccc2)CC1,inactive: 0.423%
26,CCN1CCC(Nc2ccc(Cl)cc2)CC1,inactive: 15.9%
27,O=C(NCC1(N2CCCCC2)CCCCC1)c1cccc([N+](=O)[O-])c1,inactive: -0.543%

row,SMILES,activation
1,CCOc1ccc(C(=O)NCC2(N3CCOCC3)CCCCC2)cc1,inactive: 1.81%
2,CSc1ccc(C(=O)NCC2(N3CCOCC3)CCCCC2)cc1,inactive: 0.672%
3,O=C(NCC1(N2CCCCC2)CCCCC1)c1ccc(OC(F)F)cc1,inactive: 0.354%
4,Cc1ccc(OCC(C)C)c(CN(CCCl)CCCl)c1,inactive: 1.32%
5,COc1cc(C(=O)NCC2(N(C)C)CCCCC2)ccc1OC(F)F,inactive: 0.233%
6,CCOC(=O)N1CCC(Nc2cccc(C)c2)CC1,inactive: -1.21%
7,COc1ccccc1C(=O)NCC1(N2CCOCC2)CCCCC1,inactive: 0.513%
8,COc1ccc(NC2CCN(CCc3ccccc3)CC2)c(OC)c1,inactive: 1.33%
9,CCOC(=O)N1CCC(Nc2ccc(F)cc2)CC1,inactive: -1.27%
10,O=C(NCC1(N2CCCCC2)CCCCC1)c1ccc(F)cc1,inactive: 7.04%
11,O=C(NCC1(N2CCOCC2)CCCCC1)c1ccc(Cl)cc1,inactive: -1.92%
12,CCOc1ccc(C)cc1CN(CCCl)CCCl,inactive: 0.45%
13,COc1ccc(Cl)cc1C(=O)NCC1(N2CCOCC2)CCCCC1,inactive: -0.0712%
14,O=C(OC1CN2CCC1CC2)C1c2ccccc2Oc2ccccc21 (stereo not given),inactive: 1%
15,O=C(NCC1(N2CCCCC2)CCCCC1)c1ccc(Cl)s1,inactive: 0.12%
16,N#CC1(Nc2ccccc2)CCN(Cc2ccccc2)CC1,inactive: 0.376%
17,CCOC(=O)N1CCC(Nc2ccc(OC)cc2)CC1,inactive: -0.473%
18,Cc1cc(C)cc(N(C(=O)c2ccccc2)C2CCN(C(=O)OC(C)(C)C)CC2)c1,inactive: -3.88%
19,O=C(NCC1(N2CCCCC2)CCCCC1)c1ccc(Cl)nc1,inactive: -0.0807%
20,O=C(NCC1(N2CCOCC2)CCCCC1)c1cc2ccccc2o1,inactive: 0.2%
21,CSc1ccccc1C(=O)NCC1(N2CCCCC2)CCCCC1,inactive: -2.66%
22,CC(C)(C)OC(=O)N1CCC(N(C(=O)c2ccccc2)c2ccc(F)cc2)CC1,inactive: -0.0529%
23,COc1ccc(C(=O)NCC2(N3CCCCC3)CCCCC2)c(OC)c1OC,inactive: -1.15%
24,COc1ccc(C(=O)NCC2(N3CCCCC3)CCCCC2)cc1,inactive: -1.65%
25,O=C(NCC1(N2CCCCC2)CCCCC1)c1cccs1,inactive: 0.112%
26,O=C(NCC1(N2CCCCC2)CCCCC1)c1ccc(=O)[nH]c1,inactive: 2.45%
